{"sequences": {"note": "Amino acid sequences for entries named in this document (tags omitted).", "UniProt P06276, whole entry": "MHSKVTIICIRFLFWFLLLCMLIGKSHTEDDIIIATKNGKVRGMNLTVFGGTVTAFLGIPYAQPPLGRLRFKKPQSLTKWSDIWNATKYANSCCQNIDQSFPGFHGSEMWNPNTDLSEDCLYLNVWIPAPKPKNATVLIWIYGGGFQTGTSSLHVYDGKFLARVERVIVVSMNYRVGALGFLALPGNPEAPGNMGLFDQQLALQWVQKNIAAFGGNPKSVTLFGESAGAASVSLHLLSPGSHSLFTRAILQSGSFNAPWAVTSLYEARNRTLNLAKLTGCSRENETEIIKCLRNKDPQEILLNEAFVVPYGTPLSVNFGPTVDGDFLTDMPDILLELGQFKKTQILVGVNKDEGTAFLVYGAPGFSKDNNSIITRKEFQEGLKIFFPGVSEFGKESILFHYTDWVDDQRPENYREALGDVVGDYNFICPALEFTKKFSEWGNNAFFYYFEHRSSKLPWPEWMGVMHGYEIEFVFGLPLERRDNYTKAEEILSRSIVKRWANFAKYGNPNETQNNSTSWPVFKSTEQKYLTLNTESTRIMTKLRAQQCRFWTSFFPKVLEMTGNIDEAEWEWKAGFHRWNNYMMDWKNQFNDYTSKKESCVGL"}, "source": "ChEMBL document CHEMBL5143570", "about": "“Development of naringenin-O-carbamate derivatives as multi-target-directed liagnds for the treatment of Alzheimer's disease” (Bioorg Med Chem Lett, 2022)", "target": "Cholinesterase (Homo sapiens, UniProt P06276)", "assay": "Inhibition of human serum BuChE using butyrylthiocholine as substrate incubated for 15 mins by DTNB reagent based Ellman's method", "type": "cell-free", "data": [{"compound": "CCN(C)C(=O)Oc1cccc([C@H](C)N(C)C)c1", "note": "[RIVASTIGMINE]", "values": [{"measurement": "IC50", "value": 4.3, "unit": "µM"}]}]}
